Hits are enriched below; roughly 0.39% of the tested compounds scored in any of these assays.
Mm-Cpn inhibitor – M. maripaludis TRiC chaperonin inhibition. 330,000 tested, 0.031% active. purified Mm-Cpn ATPase, ADP Transcreener TR-FRET. Potency, µM (top dose mostly 76.9 µM), most hits filed as inhibitors; active = well fitted inhibition curve with a large enough effect; inconclusive = small, poorly fitted or top-dose-only effect; note: nearly all actives have a fitted effect of over 80% in size
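Reaction buffer contained 30 mM Tris pH 7.4, 100 mM KCl, 5 mM MgCl2 and 1 mM DTT. Mm-CPN (25 nM final) hydrolysed 10 uM ATP over 30 min at 37°C; ADP was read by HTRF.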
Rango release inh – inhibitors of RanGTP-induced Rango-importin beta complex dissociation. O95149+P62826. Biochemical FRET Rango-importin beta, RanGTP-induced dissociation. Potency, µM (doses to about 46.1 µM). 340,000 tested, 0.071% active; note: nearly all actives have a fitted effect of over 45% in size
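Compounds preincubate 5 min with complex of recombinant Rango and importin beta in PBS with 1 mM DTT. Ran (0.6 uM) loaded with 2 mM GTP plus 0.2 uM RCC1 starts dissociation; FRET is recorded 45 min later.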
Rango complex inh – inhibitors of Rango-importin beta complex formation; Rango CFP/YFP FRET sensor + importin beta, 45 min; Potency, µM (top dose mostly 92.2 µM); 340,000 tested, 0.031% active; AID 540263; note: nearly all actives have a fitted effect of over 15% in size
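FRET biosensor Rango (snurportin 1 IBB between N-terminal EYFP and C-terminal Cerulean), 50 nM in PBS/1 mM DTT/0.02% Tween-20/0.1% BSA, preincubated 5 min RT with compound; 0.125 microM importin beta added, 45 min RT, CFP/YFP FRET ratio read.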
CCT modulator – modulators of cytosolic chaperonin (CCT/TRiC) activity. purified chaperonin ATPase assay, HTRF ADP detection, 30 min. activity change, % (concentration not given with the values), hits read low. 360,000 tested, 0.3% active. AID 651819; in the data active = activity change below about -30%
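TRiC (40 or 20 nM final, by batch activity) in 30 mM Tris pH 7.4, 100 mM KCl, 5 mM MgCl2, 1 mM DTT was treated with compound at 76 uM single dose, then 10 uM ATP, 30 min at 37 °C. ADP was read by HTRF Transcreener.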
Each line names hits and unclear results; the compound was inactive in the other large screens; [ ] = dose if it differs, or a comment. Unless noted, calls come from the whole dose curve.

NC(=O)CSc1nnc(Cc2csc(Nc3ccccc3)n2)n1Cc1ccccc1	CCT modulator -69
Cc1onc(-c2ccccc2Cl)c1C(=O)OCC(=O)Nc1ccc2c(c1)OCO2	none
Cc1onc(-c2ccccc2)c1C(=O)OCC(=O)Nc1ccc2c(c1)OCO2	CCT modulator -43
COc1ccc(-c2nc(NC(=O)Cn3cnnn3)sc2C)cc1	none
COc1ccc(-c2nc(NC(=O)CSCCO)sc2C)cc1	CCT modulator -56
CC(C)C(NC(=O)c1ccccc1)C(=O)OCC(=O)N1CCCCC1 (stereo unspecified)	CCT modulator -40
CC12CCC(=O)C=C1CCC1C2C(O)CC2(C)C1CCC2(O)C(=O)COC(=O)COCC(=O)O (stereo unspecified)	none (no result: Mm-Cpn inhibitor)
CCN1C(=O)/C(=C\N(C(C)=O)c2ccccc2)OC1=S	none
CC(=O)N(/C=C1\SC(=S)N(c2ccccc2)C1=O)c1ccccc1	Rango release inh 16µM, Rango complex inh inconclusive
Fc1ccc(N2N=C(c3cccs3)CC2c2ccccc2)cc1 (stereo unspecified)	Rango release inh 9.2µM[inhibitor], Rango complex inh inconclusive
O=S(=O)(c1ccccc1)N1N=C(c2cccs2)CC1c1ccc(F)cc1 (stereo unspecified)	none
Cc1ccc(C2/C(=C(/O)c3ccc(Cl)cc3)C(=O)C(=O)N2CC2CCCO2)o1 (stereo unspecified)	none
O=C1C(=O)N(CC2CCCO2)C(c2ccccc2[N+](=O)[O-])/C1=C(/O)c1ccccc1 (stereo unspecified)	CCT modulator -49
CCc1nc2ccc(C(=O)NCC3CCCCC3)cn2c1N(C)Cc1nccs1	none (no result: Mm-Cpn inhibitor, Rango release inh, Rango complex inh)
O=C(O)COc1ccc(/C=N/NC(=O)c2ccc(-c3csc(Nc4ccc(Cl)cc4)n3)cc2)cc1	Rango complex inh 52µM
Cc1cc(C)cc(NC(=O)/C=C/c2ccc([N+](=O)[O-])s2)c1	Rango release inh 1µM, Rango complex inh inconclusive
Cc1ccccc1NC(=O)/C=C/c1ccc([N+](=O)[O-])s1	Rango release inh 0.65µM[inhibitor], Rango complex inh inconclusive
Clc1ccccc1-c1nnc(-c2cccnc2)o1	CCT modulator -40
Cc1ccc(-c2nnc(-c3cccc(NC(=O)c4cccs4)c3)o2)cc1	CCT modulator -44
COc1ccc(CNc2nc3ccccc3n2CCN2CCOCC2)cc1	CCT modulator -45
CCN(CC)c1ccc(CNc2nc3ccccc3n2CCN2CCOCC2)cc1	none
CC(=O)c1cccc(-c2ccnc3c2CC(C(=O)Nc2cccc(C(F)(F)F)c2)O3)c1 (stereo unspecified)	none (no result: Mm-Cpn inhibitor, Rango release inh, Rango complex inh)
Cc1cc(NC(=O)C2CCCO2)ccc1Br (stereo unspecified)	CCT modulator -107
O=C(Nc1ccc(Br)c(Br)c1)C1CCCO1 (stereo unspecified)	none (no result: Mm-Cpn inhibitor)
Cc1ccc(C)c(OCCn2cc(/C=C(\C#N)C(=O)NCc3ccco3)c3ccccc32)c1	Rango release inh 4.1µM, Rango complex inh inconclusive
COc1ccccc1OCCn1cc(/C=C(\C#N)C(=O)NCc2ccco2)c2ccccc21	Rango complex inh inconclusive
O=c1c2oc3nc4c(cc3c2ncn1CCCc1ccccc1)CCCC4	CCT modulator -32
COc1ccc(N2CCN(S(=O)(=O)CCNC(=O)COc3ccccc3C)CC2)cc1	none
COc1ccc(N2CCN(S(=O)(=O)CCNC(=O)COc3ccc(Cl)cc3)CC2)cc1	CCT modulator -40
CCOc1ccc(C(=O)OCCN(C)C)cc1	CCT modulator -32
CC(C)(C)S(=O)(=O)N1C[C@@H]2CC/C=C\C/C=C\2[C@H]1CCO	none (no result: Mm-Cpn inhibitor)
N#Cc1ccccc1S(=O)(=O)N1CCN(C(=O)CN(Cc2ccco2)Cc2cccs2)CC1	none (no result: Mm-Cpn inhibitor, Rango release inh, Rango complex inh)
COc1ccc(-c2ccc(-c3noc(C(C)C)n3)c(OC)n2)cc1	Rango release inh 0.0082µM, Rango complex inh inconclusive
Cc1cc(C)c(CC(=O)c2ccccc2)c(C)c1	none (no result: Mm-Cpn inhibitor)
N#Cc1ccc2c(c1)C[C@]1(CCCCN3C(=O)c4ccccc4C3=O)Oc3cc(-c4ccccc4)oc(=O)c3[C@H]2O1	none (no result: Rango release inh, Rango complex inh, CCT modulator)
CC(C)c1ccc(NC(=O)C2CC(=O)N(C(C)C)C2)cc1 (stereo unspecified)	Rango complex inh 4.1µM
CC(C)N1CC(C(=O)Nc2ccc(C#N)cc2)CC1=O (stereo unspecified)	none
CC(NC(=O)C1CCCC1)C1CC2CCC1C2 (stereo unspecified)	CCT modulator -41
COc1ccc(C(=O)NC(C)C2CC3CCC2C3)cc1 (stereo unspecified)	none
CC(NC(=O)c1ccc(N(C)C)cc1)C1CC2CCC1C2 (stereo unspecified)	CCT modulator -44
CCN(CC)S(=O)(=O)c1ccc(C)c(NC(=O)COc2ccc(Cl)cc2Br)c1	CCT modulator -56
Cc1ccc(CCC(=O)Nc2ccc(C#N)cc2)o1	CCT modulator -103
CCc1ccc(NC(=O)CCc2ccc(C)o2)cc1	none
Cc1ccc(S(=O)(=O)N(Cc2ccccc2)c2ccccc2C(=O)N2CCCCC2)cc1	none
O=C(COC(=O)c1ccc(F)cc1Cl)NC1CC1	CCT modulator -50 (no result: Mm-Cpn inhibitor, Rango release inh, Rango complex inh)
O=C(COC(=O)c1cc(F)c(F)cc1Cl)NC1CC1	none
CC(C)c1ccc(N(CC(=O)N2CCN(Cc3ccccc3)CC2)S(C)(=O)=O)cc1	CCT modulator -95
C=C(C1=CCN(S(=O)(=O)C(C)(C)C)[C@@H]1CCO)c1ccccc1	none (no result: Mm-Cpn inhibitor)

Screening results as filed in PubChem BioAssay.
